# Measurements published in patent US10308614B2 (priority 2015, dated 2019).
# Biological target: His-BRG1 (A1448-S1575; Swiss Prot P51532) (Homo sapiens (Human), UniProt P51532)
# Type: binding
# Settings: TR-FRET, His-BRG1 4 nM, biotinylated ligand 40 nM; read-out: BRG1 HTRF IC50
compound,measurement,value
"Nc1nnc(-c2ccccc2O)cc1N1CC[C@@]2(O)CCCC[C@@H]2C1 [Example 28, (trans-4a,8a)-2-(3-amino-6-(2-hydroxyphenyl)pyridazin-4-yl)octahydroisoquinolin-4a(2H)-ol]",IC50,17.2 nM
"Nc1nnc(-c2ccccc2O)cc1N1CC[C@@]2(O)CCCC[C@@H]2C1 (single isomer, unassigned) [Example 84, (trans-4a,8a)-2-(3-amino-6-(2-hydroxyphenyl)pyridazin-4-yl)decahydroisoquinolin-4a-ol]",IC50,8.4 nM
